For orientation: MIC means the lowest concentration that inhibits growth of the organism. Higher therefore signals a need for much substance.

≈ marks a conversion by molar mass, not a printed value.

One compound from ChEMBL document CHEMBL1671744 (Antimicrob Agents Chemother, 2010) can be followed below.

For assay [1], the system named is Staphylococcus aureus. Kind of assay: Antimicrobial activity against Staphylococcus aureus. In kind it is functional.
Assay [2] relates to Escherichia coli. Kind of assay: Antimicrobial activity against Escherichia coli. In kind it is functional.

Turning to `CC[C@H](C)[C@H](NC(=O)CN)C(=O)NCC(=O)N[C@@H](C)C(=O)N[C@H](C(=O)N[C@@H](CC(C)C)C(=O)N[C@@H](CCCCN)C(=O)N[C@H](C(=O)N[C@@H](CC(C)C)C(=O)N[C@H](C(=O)N[C@H](C(=O)NCC(=O)N[C@@H](CC(C)C)C(=O)N1CCC[C@H]1C(=O)N[C@@H](C)C(=O)N[C@@H](CC(C)C)C(=O)N[C@H](C(=O)N[C@@H](CO)C(=O)N[C@@H](Cc1c[nH]c2ccccc12)C(=O)N[C@H](C(=O)N[C@@H](CCCCN)C(=O)N[C@@H](CCCNC(=N)N)C(=O)N[C@@H](CCCCN)C(=O)N[C@@H](CCCNC(=N)N)C(=O)N[C@@H](CCC(N)=O)C(=O)N[C@@H](CCC(N)=O)C(N)=O)[C@@H](C)CC)[C@@H](C)CC)[C@@H](C)O)[C@@H](C)O)C(C)C)C(C)C` [MELITTIN], the MIC in assay [1] was 0.5 µM (≈ 1.42 µg/mL); in assay [2], 2 µM (≈ 5.69 µg/mL).
